What was measured:
RAW264.7 cells [1] = experiment: Osteoclast resorption activity (OAAS plates); conditions: conditioned medium from MDA-MB-435 cells treated with cyclopamine
OPN promoter [2] = experiment: OPN promoter reporter activity in MC3T3-E1 pre-osteoblastic cells; format: cell-based, murine
OPN promoter [3] = experiment: OPN promoter reporter activity in hFOB cells; format: cell-based, human
RAW264.7 cells [4] = experiment: Osteoclast differentiation (TRAP assay); conditions: DM supplemented with cyclopamine
OPN promoter [5] = experiment: OPN promoter luciferase reporter assay in metastatic melanoma cell lines; format: cell-based, human

CC1=C2C[C@H]3[C@@H](CC=C4C[C@@H](O)CC[C@@]43C)[C@@H]2CC[C@]12O[C@@H]1C[C@H](C)CN[C@H]1[C@H]2C [cyclopamine]
ability of tumor cells to activate resorptive function (RAW264.7 cells [1]): significantly reduced
OPN promoter activity (OPN promoter [2]): inhibits Hedgehog-activated OPN
OPN promoter activity (OPN promoter [3]): inhibits OPN
viability of preosteoclasts (RAW264.7 cells [4]): without impacting their viability
OPN promoter activity (OPN promoter [5]; MCC012A cell line, cyclopamine 10 μM): noticeable, but not significant (p=0.06) decrease
OPN promoter activity (OPN promoter [5]; MCC012A cell line, cyclopamine 20 μM): significant decrease (p=0.0006)
OPN promoter activity (OPN promoter [5]; MCC012F cells, cyclopamine 10 μM and 20 μM): significant (p=0.042 and 0.002, respectively) decrease

Reference: patent publication US9540647B2, “Methods and compositions for the treatment of cancer” (University of South Alabama, priority 2010, dated 2017)
